Laboratory results: US11376277B2, “Synergistic medicinal compositions for treating dysfunctional D-serine signaling” (CELAGENEX RESEARCH (INDIA) PVT. LTD., priority 2020, dated 2022)

Experiments:
D-serine [1] = test: Pharmacokinetics profile of D-serine in rat model, brain tissue sample; details: rat brain tissue samples; G4 36.17 mg/kg, G5 31.01 mg/kg
Procedure: (§1) To assess and compare the pharmacokinetics profile of D-serine in rat model.
(§2) Six groups were divided into 4 sets of 3 rats each/subset for bleeding and organ (brain) collection—Total 72 rats
Organ (Brain) collection: Rats were sacrificed each time point (3 rats/group/time point) by decapitation at 0, 2, 6 or 10 hr post dose. Brain was removed and cerebellum dissected on ice. Tissue samples were frozen on dry ice and stored at −80° C. until analysis.
(§3) Supernatant was filtered with 0.2 micron amicon syringe filter (Millipore, Hessen, Germany), then directly transferred into auto sampler vials
(§4) An Accela™ ultra-high performance liquid chromatography (UHPLC) system (Thermo Fisher, Waltham, USA), coupled online via heated electrospray ionization source (HESI) with a Q-Exactive-Orbitrap mass spectrometer (Thermo Fisher), was employed for global metabolomics profiling with 1 μL sample injection volume. The metabolites were profiled using a C18 Hypersil Gold column (1.9 μm, 2.1×150 mm, Thermo).
(§5) The temperature of column oven was set at 35° C. and the sample manager was maintained at 4° C. The eluents acetonitrile and water containing 0.1% formic acid were employed in the electrospray ionization-positive (ESI+) mode.
(§6) The area under the plasma concentration time curve (AUC) value was calculated to the last quantifiable sample (AUClast) by using the log-linear trapezoidal rule.

D-serine [2] = test: Pharmacokinetics profile of D-serine in rat model, blood plasma; details: G4 36.17 mg/kg, G5 31.01 mg/kg
Procedure: as §1, §2
Plasma was separated using refrigerated centrifuge & stored in −80° C. before analysis. Blood was collected at time point 0, 2, 6 and 10 hrs at least from 3 rats/group/time point.
as §3, §4, §5, §6

In the case of `O=C([O-])c1ccccc1.[Na+]` [Test II, Sodium benzoate], the “AUC values of D-serine” value (D-serine [1]) is reported as “increased” and the “AUC values of D-serine” value (D-serine [2]) is reported as “increased”.
